Test: In vitro inhibitory activity against sorbitol dehydrogenase (SD) from sheep liver; Not active; call rule not given here

IC50: Not Active
SMILES: Cc1ccc(CN2C(=O)C(C(C#N)C(=O)O)c3cc(F)ccc32)cc1 (stereo unspecified)
